# Biological target: CYP1A2 (Homo sapiens, UniProt P05177)
# The chains behind the UniProt entries cited, without tags or fusion partners.
# UniProt P05177, whole entry: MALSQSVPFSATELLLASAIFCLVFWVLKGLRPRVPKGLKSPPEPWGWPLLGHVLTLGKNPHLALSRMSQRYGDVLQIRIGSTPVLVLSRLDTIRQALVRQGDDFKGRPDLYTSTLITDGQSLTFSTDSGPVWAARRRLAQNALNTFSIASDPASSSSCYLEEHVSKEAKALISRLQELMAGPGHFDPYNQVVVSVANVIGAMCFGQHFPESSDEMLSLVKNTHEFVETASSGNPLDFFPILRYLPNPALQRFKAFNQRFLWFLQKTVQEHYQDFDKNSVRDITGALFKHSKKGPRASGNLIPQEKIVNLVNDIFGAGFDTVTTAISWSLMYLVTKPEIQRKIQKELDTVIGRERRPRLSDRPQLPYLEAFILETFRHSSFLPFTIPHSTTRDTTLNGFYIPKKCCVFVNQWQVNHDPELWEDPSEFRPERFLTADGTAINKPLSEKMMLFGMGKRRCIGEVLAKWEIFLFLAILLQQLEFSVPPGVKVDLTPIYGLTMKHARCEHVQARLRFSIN
# Experiment: CYP1A2 activity (P450-Glo, Luciferin-1A2) in primary human hepatocyte spheroids and monolayers after 72 h drug exposure
# Conditions: primary human hepatocytes, 72 h exposure, normalized to control
smiles,measurement,value
O=c1cc(-c2ccccc2)oc2c1ccc1ccccc12 [α-napthoflavone],"fold inhibition of CYP1A2 activity, spheroids compared to monolayers",greater fold inhibition in spheroids compared to monolayers
